The entries are a selection whose mix differs from that of the whole data set. Some salts and complexes are drawn in separate pieces, as the source files them; their charges need not balance. Calls of active or inactive are those of the source. The call rests on the fitted dose curve; in most records, active means well fitted activation curve with a large enough effect; inconclusive means small, poorly fitted or top-dose-only effect; inactive means no such curve, though single readings can be large or run the other way.
molecular target: Rap guanine nucleotide exchange factor 4 (Homo sapiens) (UniProt Q8WZA2); assay: qHTS for Agonist of cAMP-regulated guanine nucleotide exchange factor 4 (EPAC2): primary screen; conditions: biochemical qHTS, 100% = 6.5 mM cAMP response; at 154 µM (top of the series); further: nearly all actives have a fitted effect of over 50% in size
Text: In multi-cellular eukaryotic organisms, the effects of cAMP are transduced by two ubiquitously-expressed intracellular cAMP receptors, the classic protein kinase A/cAMP-dependent protein kinase (PKA/cAPK) and the more recently discovered exchange protein directly activated by cAMP/cAMP-regulated guanine nucleotide exchange factor (EPAC/cAMP-GEF). Both PKA and EPAC are ubiquitously expressed in all tissues, and an increase in intracellular cAMP levels will lead to the activation of both PKA and EPAC. Therefore, careful dissections of the individual role and relative contribution of EPAC and PKA within the overall cAMP signaling in various model systems are critical for further elucidating the mechanism of cAMP signaling. To date no EPAC-specific antagonists and agonist, as well as isoform-specific agonists have been reported, and developing EPAC-specific pharmacological probes to determine the physiological functions that EPAC play in the overall cAMP-mediated signaling remains a major challenge within the research field. Furthermore, identified regulators of EPAC may lead to new mechanism-based therapeutic strategies specifically targeting the EPAC / cAMP-signaling components as EPAC has been implicated to play important roles in major human pathological conditions such as diabetes, heart disease, and cancer.
This qHTS will be used to screen the Molecular Libraries Small Molecule Repository (MLSMR) as a concentration-titration series using the NCGC unique quantitative screening (qHTS) platform to find activators for EPAC2. In addition, this assay will also be used as a counterscreen for the EPAC1 qHTS. This fluorescent based assay is developed and validated for EPAC2 that measures exchange using EPAC effector Rap1 complex with BODIPY-GDP, a GDP analog with a tethered fluorophores. Activators are identified by monitoring the change in fluorescence signal as the exchanged free BODIPY-GDP has a reduced fluorescence compared to Rap1-bound BODIPY-GDP. […] in signal (activation) is the desired outcome for the EPAC2 agonist while no activity in this assay is desired for the EPAC1 agonist counterscreen.
[1] de Rooij, J., Zwartkruis, F. J., Verheijen, M. H., Cool, R. H., Nijman, S. M., Wittinghofer, A., and Bos, J.L. (1998) Nature 396, 474-477
[2] Kawasaki, H., Springett, G. M., Mochizuki, N., Toki, S., Nakaya, M., Matsuda, M., Housman, D. E., and Graybiel, A. M. (1998) Science 282, 2275-2279
NIH Chemical Genomics Center [NCGC]
NIH Molecular Libraries Probe Centers Network [MLPCN]
Assay Submitter (PI): Xiaodong Cheng, The University of Texas, Medical Branch
Briefly, three uL of reagents (100 nM EPAC2, 250 nM RAP1B-BODIPY-GDP, 50 uM GDP) were dispensed into a 1536-well Greiner black solid-bottom medium binding assay plate. Controls and test compounds (23 nL) were transferred to the plate via a Kalypsys pin tool equipped with a 1536-pin array. The plates were centrifuged at 1,000 rpm for 15 seconds followed by 5 minute incubation at room temperature. The assay plates were read at 5 minute intervals for 30 minutes in the ViewLux plate reader using 480nm excitation and 540nm emission filters. The results were normalized to the agonist positive control of 6.5 mM cAMP.

Amino acid sequences for entries named in this document (tags omitted).
UniProt Q8WZA2, whole entry: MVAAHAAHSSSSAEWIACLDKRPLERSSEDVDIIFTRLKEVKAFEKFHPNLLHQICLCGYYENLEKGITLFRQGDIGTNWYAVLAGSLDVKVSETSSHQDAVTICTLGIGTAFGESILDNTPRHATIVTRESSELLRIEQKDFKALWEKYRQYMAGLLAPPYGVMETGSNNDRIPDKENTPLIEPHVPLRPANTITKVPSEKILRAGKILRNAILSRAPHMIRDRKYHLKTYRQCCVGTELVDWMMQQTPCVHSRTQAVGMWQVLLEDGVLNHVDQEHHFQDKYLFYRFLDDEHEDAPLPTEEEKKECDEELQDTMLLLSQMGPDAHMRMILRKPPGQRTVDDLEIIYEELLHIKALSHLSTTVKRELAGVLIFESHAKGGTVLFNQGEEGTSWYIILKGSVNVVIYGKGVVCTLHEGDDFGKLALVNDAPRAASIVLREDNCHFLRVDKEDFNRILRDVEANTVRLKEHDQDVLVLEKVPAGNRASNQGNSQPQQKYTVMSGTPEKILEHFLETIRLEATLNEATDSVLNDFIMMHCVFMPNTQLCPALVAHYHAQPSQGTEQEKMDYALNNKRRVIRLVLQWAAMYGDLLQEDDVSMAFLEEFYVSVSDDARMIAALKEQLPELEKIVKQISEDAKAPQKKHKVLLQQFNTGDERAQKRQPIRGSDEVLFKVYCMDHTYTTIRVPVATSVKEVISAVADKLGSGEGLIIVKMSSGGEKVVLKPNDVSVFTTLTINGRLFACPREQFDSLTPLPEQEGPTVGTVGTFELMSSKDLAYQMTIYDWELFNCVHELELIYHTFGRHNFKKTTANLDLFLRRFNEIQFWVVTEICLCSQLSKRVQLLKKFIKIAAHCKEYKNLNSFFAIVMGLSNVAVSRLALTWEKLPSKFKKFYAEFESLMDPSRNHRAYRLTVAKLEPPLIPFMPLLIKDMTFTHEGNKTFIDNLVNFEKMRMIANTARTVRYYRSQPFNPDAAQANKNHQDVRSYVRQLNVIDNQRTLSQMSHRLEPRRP

Structure (SMILES) | activation
O=[N+]([O-])c1cc([N+](=O)[O-])c(Nc2ccc(Cl)cc2)c([N+](=O)[O-])c1 | inactive: 2.31%
COc1ccc(C(c2nnnn2C2CCCC2)N2CCC(n3c(=O)[nH]c4ccccc43)CC2)cc1 (configuration not stated) | inactive: 1.23%
CCCOc1ccc(C(=O)NCC2(N(C)C)CCCCC2)cc1OC | inactive: 1.94%
Cc1ccc(C(=O)NCC2(N(C)C)CCCCC2)o1 | inactive: -6.65%
O=C(OC1CN2CCC1CC2)c1ccc([N+](=O)[O-])cc1 (configuration not stated) | inactive: 2.25%
CN1CCC(Nc2cccc(F)c2)CC1 | inactive: -2.64%
O=C(NCC1(N2CCCCC2)CCCCC1)c1cncc(Br)c1 | inactive: -5.87%
COc1ccc2c(c1O)-c1c(O)c(OC)cc3c1[C@H](C2)[N+](C)(C)CC3.O=[N+]([O-])c1cc([N+](=O)[O-])c([O-])c([N+](=O)[O-])c1[O-] | inactive: 9.45%
CCC(c1nnnn1C(C)(C)C)N1CCC(n2c(=O)[nH]c3ccccc32)CC1 (configuration not stated) | inactive: -16.8%
O=C(NCC1(N2CCOCC2)CCCCC1)c1cc(F)c(F)cc1Cl | inactive: -1.96%
CCN(CC)CCCNc1ccccc1[N+](=O)[O-].O=[N+]([O-])c1cc([N+](=O)[O-])c(O)c([N+](=O)[O-])c1 | inactive: 4.24%
COc1cc(OC)c(C(=O)NCC2(N(C)C)CCCCC2)cc1OC | inactive: 6.72%
CCCCn1nnnc1C(c1ccnc2ccccc12)N1CCC(n2c(=O)[nH]c3ccccc32)CC1 (configuration not stated) | inactive: 8.72%
CC(C)c1ccc(NC2CCN(C(=O)OC(C)(C)C)CC2)cc1 | inactive: -2.82%
CCCCn1nnnc1C(c1ccccc1OC(F)(F)F)N1CCC(n2c(=O)[nH]c3ccccc32)CC1 (configuration not stated) | inactive: -12.9%
O=[N+]([O-])c1cc([N+](=O)[O-])c(OC2CCCCC2O)c([N+](=O)[O-])c1 (configuration not stated) | inactive: 0.842%
CN(C)c1cccc(C(=O)NCC2(N3CCCCC3)CCCCC2)c1 | inactive: -4.72%
COc1ccc(CN(CCCl)CCCl)cc1Cl | inactive: -2.09%
COc1cc(C(=O)NCC2(N3CCCCC3)CCCCC2)ccc1OC(F)F | inactive: -3.7%
O=C(NCC1(N2CCOCC2)CCCCC1)c1cc(=O)[nH]c2ccccc12 | inactive: 12.6%
CN1CCN(CCOC(=O)C(O)(c2ccccc2)c2ccccc2)CC1 | inactive: 7.38%
COc1ccc(NC2CCN(C(=O)OC(C)(C)C)CC2)cc1 | inactive: 2.92%
CC(C)c1ccc(C(=O)NCC2(N3CCOCC3)CCCCC2)cc1 | inactive: 21.3%

Structure (SMILES) | activation
CCCCn1nnnc1C(c1cccc2ccccc12)N1CCC(n2c(=O)[nH]c3ccccc32)CC1 (configuration not stated) | inactive: 3.34%
O=[N+]([O-])c1cc([N+](=O)[O-])c(NCC2CCS(=O)(=O)C2)c([N+](=O)[O-])c1 (configuration not stated) | inactive: -1.8%
O=C(NCC1(N2CCCCC2)CCCCC1)c1cccc(C(F)(F)F)c1 | inactive: 8.78%
O=c1[nH]c2ccccc2n1C1CCN(C(c2ccccc2OC(F)(F)F)c2nnnn2C2CCCC2)CC1 (configuration not stated) | inactive: -19.3%
N#CC1(Nc2ccccc2)CCN(CCc2ccccc2)CC1 | inactive: 0.482%
CCN1CCC(Nc2ccc(Cl)cc2)CC1 | inactive: -3.35%
CSc1ccc(C(=O)NCC2(N3CCOCC3)CCCCC2)cc1 | inactive: 9.46%
O=C(NCC1(N2CCCCC2)CCCCC1)c1cccc([N+](=O)[O-])c1 | inactive: 10.5%
O=C(NCC1(N2CCCCC2)CCCCC1)c1ccc(OC(F)F)cc1 | inactive: 13.5%
CC(C)(C)n1nnnc1C(c1ccccc1OC(F)(F)F)N1CCC(n2c(=O)[nH]c3ccccc32)CC1 (configuration not stated) | inactive: 11.5%
CCOC(=O)N1CCC(Nc2cccc(C)c2)CC1 | inactive: 4.49%
COc1cc(C(=O)NCC2(N(C)C)CCCCC2)ccc1OC(F)F | inactive: 6.82%
O=c1[nH]c2ccccc2n1C1CCN(C(c2cccc3ccccc23)c2nnnn2C2CCCC2)CC1 (configuration not stated) | inactive: 4.53%
O=c1[nH]c2ccccc2n1C1CCN(C(c2ccccc2)c2nnnn2C2CCCCC2)CC1 (configuration not stated) | inactive: 5.06%
COc1ccc(NC2CCN(CCc3ccccc3)CC2)c(OC)c1 | inactive: 3.9%
CCOC(=O)N1CCC(Nc2ccc(F)cc2)CC1 | inactive: 12.9%
O=P1(N(CCCl)CCCl)SCCCS1 | inactive: 6.99%
CCCCn1nnnc1C(c1cc2ccccc2o1)N1CCC(n2c(=O)[nH]c3ccccc32)CC1 (configuration not stated) | inactive: 1.61%
CCCCOc1ccc(C(=O)NCC2(N3CCOCC3)CCCCC2)cc1 | inactive: -6.13%
O=C(NCC1(N2CCCCC2)CCCCC1)c1ccc(F)cc1 | inactive: 6.3%
O=C1CCN(Cc2ccccc2)CC1 | inactive: 2.82%
CC(C)(C)n1nnnc1C(c1ccccc1)N1CCC(n2c(=O)[nH]c3ccccc32)CC1 (configuration not stated) | inactive: 3.97%
CCOc1ccc(C)cc1CN(CCCl)CCCl | inactive: 2.23%

Structure (SMILES) | activation
COc1ccc(Cl)cc1C(=O)NCC1(N2CCOCC2)CCCCC1 | inactive: 0.258%
O=C1C(O)=C([N+](=O)[O-])C(=O)C(O)=C1[N+](=O)[O-] | inactive: 7.81%
N#CC1(Nc2ccccc2)CCN(Cc2ccccc2)CC1 | inactive: 12.5%
O=C(NCC1(N2CCCCC2)CCCCC1)c1ccc(Cl)s1 | inactive: 7.77%
O=C(OC1CN2CCC1CC2)C1c2ccccc2Oc2ccccc21 (configuration not stated) | inactive: 3.82%
O=c1[nH]c2ccccc2n1C1CCN(C(c2cc3ccccc3o2)c2nnnn2C2CCCCC2)CC1 (configuration not stated) | inactive: 2.58%
CCCCn1nnnc1C(c1ccc(OC)cc1)N1CCC(n2c(=O)[nH]c3ccccc32)CC1 (configuration not stated) | inactive: 14%
CCOC(=O)N1CCC(Nc2ccc(OC)cc2)CC1 | inactive: 14.2%
Cc1cc(C)cc(N(C(=O)c2ccccc2)C2CCN(C(=O)OC(C)(C)C)CC2)c1 | inactive: 16.9%
O=C(NCC1(N2CCCCC2)CCCCC1)c1ccc(Cl)nc1 | inactive: -1.06%
O=c1[nH]c2ccccc2n1C1CCN(C(c2ccccc2OC(F)(F)F)c2nnnn2C2CCCCC2)CC1 (configuration not stated) | inactive: -4.74%
O=C(NCC1(N2CCOCC2)CCCCC1)c1cc2ccccc2o1 | inactive: 3.44%
Cc1cccc(NC2(C#N)CCN(Cc3ccccc3)CC2)c1 | inactive: 0.275%
CSc1ccccc1C(=O)NCC1(N2CCCCC2)CCCCC1 | inactive: 12.9%
COc1ccc(C(=O)NCC2(N3CCCCC3)CCCCC2)c(OC)c1OC | inactive: 2.42%
CC(C)(C)OC(=O)N1CCC(N(C(=O)c2ccccc2)c2ccc(F)cc2)CC1 | inactive: 6.16%
CCC(c1nnnn1C1CCCC1)N1CCC(n2c(=O)[nH]c3ccccc32)CC1 (configuration not stated) | inactive: 6.58%
COc1ccc(C(=O)NCC2(N3CCCCC3)CCCCC2)cc1 | inactive: 13.1%
CCCCn1nnnc1C(CC)N1CCC(n2c(=O)[nH]c3ccccc32)CC1 (configuration not stated) | inactive: -2.51%
O=C(NCC1(N2CCCCC2)CCCCC1)c1cccs1 | inactive: 4.98%
CCCCn1nnnc1C(c1cccs1)N1CCC(n2c(=O)[nH]c3ccccc32)CC1 (configuration not stated) | inactive: 19.5%
O=C(NCC1(N2CCCCC2)CCCCC1)c1ccc(=O)[nH]c1 | inactive: -1.24%
CN1CCC(Nc2ccc(Cl)cc2)CC1 | inactive: 0.115%

Structure (SMILES) | activation
COc1cccc(C(c2nnnn2C2CCCC2)N2CCC(n3c(=O)[nH]c4ccccc43)CC2)c1OC (configuration not stated) | inactive: 0.482%
COc1cc(OC)cc(C(=O)NCC2(N3CCOCC3)CCCCC2)c1 | inactive: 13.6%
COc1cccc(C(=O)N(c2cc(C)cc(C)c2)C2CCN(C(=O)OC(C)(C)C)CC2)c1 | inactive: 1.94%
CCC(CO)(C(=O)OC1CN2CCC1CC2)c1ccccc1 (configuration not stated) | inactive: 7.97%
O=C(O)C1(Nc2ccccc2)CCN(Cc2ccccc2)CC1 | inactive: 0.318%
NN(c1ccccc1)C1CCN(CCc2ccccc2)CC1 | inactive: -3.29%
CC(C)(C)OC(=O)N1CCC(Nc2ccccc2)CC1 | inactive: 10.4%
O=c1[nH]c2ccccc2n1C1CCN(C(c2cc3ccccc3o2)c2nnnn2C2CCCC2)CC1 (configuration not stated) | inactive: 0.82%
CCCOc1ccc(C(=O)NCC2(N(C)C)CCCCC2)cc1 | inactive: -1.19%
CN1CCC(Nc2ccc(F)c(Cl)c2)CC1 | inactive: 1.16%
CCOc1ncccc1C(=O)NCC1(N2CCOCC2)CCCCC1 | inactive: -3.19%
CN(C)c1ccc(C(=O)NCC2(N3CCCCC3)CCCCC2)cc1 | inactive: 9.5%
Cn1c(=O)[nH]cc(N(CCCl)CCCl)c1=O | inactive: -0.758%
O=C(NCC1(N2CCCCC2)CCCCC1)c1ccco1 | inactive: 7.84%
COc1ccc(C(c2nnnn2C2CCCCC2)N2CCC(n3c(=O)[nH]c4ccccc43)CC2)cc1 (configuration not stated) | inactive: 6.08%
CCN1CCC(Nc2cccc(F)c2)CC1 | inactive: 4.2%
CC(C)(C)n1nnnc1C(c1ccnc2ccccc12)N1CCC(n2c(=O)[nH]c3ccccc32)CC1 (configuration not stated) | inactive: 16%
Cc1ccccc1NC1(C#N)CCN(Cc2ccccc2)CC1 | inactive: 5.26%
Fc1ccccc1NC1CCN(Cc2ccccc2)CC1 | inactive: 6.44%
Cc1ccc(Nc2c([N+](=O)[O-])cc([N+](=O)[O-])cc2[N+](=O)[O-])cc1 | inactive: 4.81%
Cc1ccc(C(=O)NCC2(N3CCCCC3)CCCCC2)o1 | inactive: -4.17%
Cc1ccc(NC2(C#N)CCN(Cc3ccccc3)CC2)cc1 | inactive: 0.489%
CCC(c1nnnn1C1CCCCC1)N1CCC(n2c(=O)[nH]c3ccccc32)CC1 (configuration not stated) | inactive: 1.39%

From PubChem BioAssay AID720711 (National Center for Advancing Translational Sciences (NCATS), 2013)
